T1: human BCMA on cells (human, UniProt Q02223 1-184)
T1 construct: also called hBCMA; BCMA on NCI-H929, ARP-1, OPM-2, U266B1, MM.1S, RPMI-8226 cells
T1 sequence: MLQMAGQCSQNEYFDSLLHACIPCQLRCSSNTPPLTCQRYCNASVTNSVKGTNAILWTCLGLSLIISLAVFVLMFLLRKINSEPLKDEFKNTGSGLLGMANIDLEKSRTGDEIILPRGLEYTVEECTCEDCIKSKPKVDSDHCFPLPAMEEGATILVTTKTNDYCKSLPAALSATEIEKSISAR

T2: Recombinant human BCMA ECD protein (Acro Biosystems) (human, UniProt Q02223 1-54)
T2 construct: also called recombinant BCMA
T2 sequence: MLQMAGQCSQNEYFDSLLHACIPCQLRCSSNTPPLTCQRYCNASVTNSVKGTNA

B1: 2265-F02 Y180/F404 (unconjugated Ab) (antibody, human IgG1, kappa, V domains shown)
VH: EVQLVESGGGLVQPGGSLRLSCAASGFNISAPGIHWVRQAPGKGLEWVGFINPAGGYTDYADSVKGRFTISADTSKNTAYLQMNSLRAEDTAVYYCARDYIRQYWTYVLDYWGQGTLVTVSS
VL: not shown
modifications: p-azidomethyl-phenylalanine in place of HC-Y180 and HC-F404 (EU numbering), unconjugated
notes: also called unconjugated anti-BCMA antibody, 2265-F02; unconjugated antibody version of Conjugate 4
B2: Conjugate 4 (antibody, human IgG1, kappa, V domains shown)
VH: B1 VH
VL: not shown
modifications: p-azidomethyl-phenylalanine in place of HC-Y180 and HC-F404 (EU numbering), each bonded to a non-cleavable maytansine linker-warhead (Conjugate M); DAR4
notes: also called Conjugate 4 ADC; SP8919 ADC

Experiments:
human BCMA on cells [1] = biological target: T1, human BCMA on cells; assay: FACS, U266B1 cells
Method: Cells were analyzed using a BD FACS Canto system. Fluorescence-activated cell sorting (FACS) data were analyzed using Flowjo software to calculate mean fluorescence intensity (MFI) (n=3 replicates) and data (mean MFI+/−standard error of the mean [SEM] versus nM of the antibody) was generated using the GraphPad Prism software.

human BCMA on cells [2] = biological target: T1, human BCMA on cells; assay: FACS, 293T-hBCMA cells
[3] = biological target: T2, Recombinant human BCMA ECD protein …; assay: competition ELISA, coated BCMA ECD, competitor BAFF 1 ng/ml, Experiment No.2
[4] = biological target: T2, Recombinant human BCMA ECD protein …; assay: competition ELISA, coated BCMA ECD, competitor BAFF 1 ng/ml, Experiment No.1
[5] = biological target: T2, Recombinant human BCMA ECD protein …; assay: competition ELISA, coated BCMA ECD, competitor APRIL 10 ng/ml, Experiment No.1
[6] = biological target: T2, Recombinant human BCMA ECD protein …; assay: competition ELISA, coated BCMA ECD, competitor APRIL 10 ng/ml, Experiment No.2

Binder	Kd (human BCMA on cells [1]) [nM]	Kd (human BCMA on cells [2]) [nM]	IC50 [3] [nM]	IC50 [4] [nM]	IC50 [5] [nM]	IC50 [6] [nM]
B1	1.4					
B2		1.4	6.9	6.8	8.3	8.9
